{"source": "patent US8252821B2", "about": "“Bioavailable capsule compositions of amorphous alpha-(N-sulfonamido)acetamide compound” (Bristol-Myers Squibb Company, priority 2009, dated 2012)", "assay": "Solubility of solubilized capsule formulations in FeSSIF at 37° C.", "type": "physicochemical", "settings": "FeSSIF pH 5.0, 37° C., 24 Hr.", "data": [{"smiles": "NC(=O)[C@@H](CCC(F)(F)F)N(Cc1ccc(-c2ncon2)cc1F)S(=O)(=O)c1ccc(Cl)cc1", "note": "[Active Compound, (2R)-2-[[(4-chlorophenyl)sulfonyl][[2-fluoro-4-(1,2,4-oxadiazol-3-yl)phenyl]methyl]amino]-5,5,5-trifluoropentanamide]", "values": [{"measurement": "ACTIVE COMPOUND Concentration", "value": 22.4, "unit": "µg/mL"}]}]}
